Experiments:
VPS34 = VPS34 (Homo sapiens (Human), UniProt Q8NEB9); experiment: Biochemical Assay for VPS34 (ADP-Glo kinase activity assay); conditions: read-out: VPS34 (Inhibition of biochemical activity of VPS34, IC50); 25 nM VPS34, 1 mM ATP, 1-hour incubation at 37° C.
Procedure: Activity of VPS34 kinase was determined using an ADP-Glo kinase activity assay (Promega Corp). Assays were conducted in 384-well plates (5 μL assay volume) using 25 nM VPS34 (ThermoFisher Scientific), […] PI:3PS Lipid Kinase Substrate (Promega Corp.), and 1 mM ATP in kinase buffer. Inhibition of VPS34 was measured by adding serial diluted test compound (final assay concentration of 0.1% DMSO) followed by a 1-hour incubation at 37° C. ADP-Glo reagent was then added ([…]) followed by a 40 min incubation at rt. Kinase detection reagent was then added ([…]) and followed by a 60 min incubation at rt. Luminescence was then detected. The RLU at each compound concentration of was converted to percent inhibition using controls (i.e., reaction with no test compound and reaction with a known inhibitor) and IC50 values were calculated by fitting a four-parameter sigmoidal curve to the data using GeneData Screener software.
VPS34 Protein Sequence (Full Length with GST Tag)

By UniProt entry, the sequences of proteins in these tests, tags left out. Where a name states a change or a piece, a line headed by the entry shows the natural chain unless it says otherwise.
UniProt P42336, whole entry: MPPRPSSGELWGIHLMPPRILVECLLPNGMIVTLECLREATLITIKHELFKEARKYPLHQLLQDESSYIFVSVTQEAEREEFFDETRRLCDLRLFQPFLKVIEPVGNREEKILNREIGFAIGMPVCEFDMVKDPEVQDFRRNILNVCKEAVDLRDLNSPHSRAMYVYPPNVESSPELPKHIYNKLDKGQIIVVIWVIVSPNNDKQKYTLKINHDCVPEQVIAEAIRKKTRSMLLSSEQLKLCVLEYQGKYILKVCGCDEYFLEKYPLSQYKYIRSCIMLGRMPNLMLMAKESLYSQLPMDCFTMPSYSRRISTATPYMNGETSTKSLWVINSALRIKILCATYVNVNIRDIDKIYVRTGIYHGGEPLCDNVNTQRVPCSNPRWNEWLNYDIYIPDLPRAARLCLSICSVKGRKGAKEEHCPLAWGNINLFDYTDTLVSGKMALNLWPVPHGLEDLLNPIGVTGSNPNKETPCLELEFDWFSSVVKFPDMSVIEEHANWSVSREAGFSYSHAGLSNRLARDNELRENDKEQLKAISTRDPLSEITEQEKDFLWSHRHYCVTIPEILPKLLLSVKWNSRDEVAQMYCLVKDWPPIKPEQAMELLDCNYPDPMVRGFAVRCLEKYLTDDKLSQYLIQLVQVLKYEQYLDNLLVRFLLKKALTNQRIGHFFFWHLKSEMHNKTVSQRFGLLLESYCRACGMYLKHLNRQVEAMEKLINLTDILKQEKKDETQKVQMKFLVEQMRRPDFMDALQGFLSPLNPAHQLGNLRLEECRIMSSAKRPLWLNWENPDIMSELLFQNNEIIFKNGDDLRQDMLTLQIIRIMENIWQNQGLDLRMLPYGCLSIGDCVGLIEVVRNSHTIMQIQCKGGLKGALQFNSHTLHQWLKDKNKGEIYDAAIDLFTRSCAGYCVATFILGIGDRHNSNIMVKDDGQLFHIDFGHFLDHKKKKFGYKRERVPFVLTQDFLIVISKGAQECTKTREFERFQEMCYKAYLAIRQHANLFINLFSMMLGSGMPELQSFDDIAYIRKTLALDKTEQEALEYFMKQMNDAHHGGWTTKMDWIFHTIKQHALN
UniProt P42336, whole entry E542K: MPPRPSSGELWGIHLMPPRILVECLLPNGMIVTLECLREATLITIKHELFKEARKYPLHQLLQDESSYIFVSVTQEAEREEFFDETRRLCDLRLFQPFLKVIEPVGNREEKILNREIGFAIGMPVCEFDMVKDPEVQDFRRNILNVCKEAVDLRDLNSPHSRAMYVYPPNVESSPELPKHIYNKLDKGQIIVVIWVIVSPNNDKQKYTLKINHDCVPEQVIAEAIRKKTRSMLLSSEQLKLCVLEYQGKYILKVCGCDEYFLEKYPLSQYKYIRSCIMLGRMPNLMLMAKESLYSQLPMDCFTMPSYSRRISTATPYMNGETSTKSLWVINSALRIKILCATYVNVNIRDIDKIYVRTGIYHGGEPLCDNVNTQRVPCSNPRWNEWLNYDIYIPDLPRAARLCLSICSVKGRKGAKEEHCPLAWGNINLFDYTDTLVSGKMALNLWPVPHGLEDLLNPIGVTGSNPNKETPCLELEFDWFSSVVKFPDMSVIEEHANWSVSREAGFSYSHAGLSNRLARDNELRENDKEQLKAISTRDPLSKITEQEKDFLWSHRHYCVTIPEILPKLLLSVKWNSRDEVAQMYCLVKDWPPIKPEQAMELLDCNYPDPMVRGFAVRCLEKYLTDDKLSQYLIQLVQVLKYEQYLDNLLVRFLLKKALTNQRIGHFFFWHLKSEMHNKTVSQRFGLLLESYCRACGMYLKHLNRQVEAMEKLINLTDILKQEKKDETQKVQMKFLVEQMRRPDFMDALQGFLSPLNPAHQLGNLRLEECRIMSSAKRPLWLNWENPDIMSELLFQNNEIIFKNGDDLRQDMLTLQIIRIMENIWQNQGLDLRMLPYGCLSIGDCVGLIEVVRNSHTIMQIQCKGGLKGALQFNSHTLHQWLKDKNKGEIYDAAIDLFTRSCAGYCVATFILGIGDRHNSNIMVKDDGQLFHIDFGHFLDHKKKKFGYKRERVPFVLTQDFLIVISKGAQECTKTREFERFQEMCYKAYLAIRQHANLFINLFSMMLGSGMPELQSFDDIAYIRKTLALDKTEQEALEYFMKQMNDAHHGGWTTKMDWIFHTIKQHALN
UniProt P42336, whole entry E545K: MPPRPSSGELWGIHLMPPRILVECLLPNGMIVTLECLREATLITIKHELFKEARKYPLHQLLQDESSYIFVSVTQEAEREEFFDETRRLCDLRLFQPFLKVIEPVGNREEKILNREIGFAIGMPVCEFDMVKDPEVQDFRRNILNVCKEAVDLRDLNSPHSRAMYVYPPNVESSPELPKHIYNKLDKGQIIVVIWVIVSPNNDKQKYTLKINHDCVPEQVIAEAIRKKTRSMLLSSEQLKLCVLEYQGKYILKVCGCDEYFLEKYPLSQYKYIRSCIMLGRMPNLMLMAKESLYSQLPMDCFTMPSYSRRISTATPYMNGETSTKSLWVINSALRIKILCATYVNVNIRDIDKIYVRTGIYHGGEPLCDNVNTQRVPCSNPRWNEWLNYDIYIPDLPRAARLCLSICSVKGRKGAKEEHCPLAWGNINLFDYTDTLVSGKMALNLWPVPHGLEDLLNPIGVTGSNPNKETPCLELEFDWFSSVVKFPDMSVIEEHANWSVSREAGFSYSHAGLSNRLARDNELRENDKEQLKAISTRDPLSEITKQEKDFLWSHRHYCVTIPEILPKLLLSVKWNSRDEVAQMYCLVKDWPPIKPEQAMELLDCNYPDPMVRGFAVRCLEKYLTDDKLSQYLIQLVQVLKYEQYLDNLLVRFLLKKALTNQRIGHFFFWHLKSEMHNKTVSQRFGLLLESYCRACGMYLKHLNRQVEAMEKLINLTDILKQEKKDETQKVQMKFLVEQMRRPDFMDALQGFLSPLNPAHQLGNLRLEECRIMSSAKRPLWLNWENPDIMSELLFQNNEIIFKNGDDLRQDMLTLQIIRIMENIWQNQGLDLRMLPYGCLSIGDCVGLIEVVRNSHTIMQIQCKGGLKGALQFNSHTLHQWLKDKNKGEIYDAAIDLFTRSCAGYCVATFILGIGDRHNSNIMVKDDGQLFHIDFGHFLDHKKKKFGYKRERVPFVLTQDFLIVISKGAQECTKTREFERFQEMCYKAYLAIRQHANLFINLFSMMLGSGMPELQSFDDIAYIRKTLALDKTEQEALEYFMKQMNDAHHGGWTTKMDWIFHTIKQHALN
UniProt P42336, whole entry H1047R: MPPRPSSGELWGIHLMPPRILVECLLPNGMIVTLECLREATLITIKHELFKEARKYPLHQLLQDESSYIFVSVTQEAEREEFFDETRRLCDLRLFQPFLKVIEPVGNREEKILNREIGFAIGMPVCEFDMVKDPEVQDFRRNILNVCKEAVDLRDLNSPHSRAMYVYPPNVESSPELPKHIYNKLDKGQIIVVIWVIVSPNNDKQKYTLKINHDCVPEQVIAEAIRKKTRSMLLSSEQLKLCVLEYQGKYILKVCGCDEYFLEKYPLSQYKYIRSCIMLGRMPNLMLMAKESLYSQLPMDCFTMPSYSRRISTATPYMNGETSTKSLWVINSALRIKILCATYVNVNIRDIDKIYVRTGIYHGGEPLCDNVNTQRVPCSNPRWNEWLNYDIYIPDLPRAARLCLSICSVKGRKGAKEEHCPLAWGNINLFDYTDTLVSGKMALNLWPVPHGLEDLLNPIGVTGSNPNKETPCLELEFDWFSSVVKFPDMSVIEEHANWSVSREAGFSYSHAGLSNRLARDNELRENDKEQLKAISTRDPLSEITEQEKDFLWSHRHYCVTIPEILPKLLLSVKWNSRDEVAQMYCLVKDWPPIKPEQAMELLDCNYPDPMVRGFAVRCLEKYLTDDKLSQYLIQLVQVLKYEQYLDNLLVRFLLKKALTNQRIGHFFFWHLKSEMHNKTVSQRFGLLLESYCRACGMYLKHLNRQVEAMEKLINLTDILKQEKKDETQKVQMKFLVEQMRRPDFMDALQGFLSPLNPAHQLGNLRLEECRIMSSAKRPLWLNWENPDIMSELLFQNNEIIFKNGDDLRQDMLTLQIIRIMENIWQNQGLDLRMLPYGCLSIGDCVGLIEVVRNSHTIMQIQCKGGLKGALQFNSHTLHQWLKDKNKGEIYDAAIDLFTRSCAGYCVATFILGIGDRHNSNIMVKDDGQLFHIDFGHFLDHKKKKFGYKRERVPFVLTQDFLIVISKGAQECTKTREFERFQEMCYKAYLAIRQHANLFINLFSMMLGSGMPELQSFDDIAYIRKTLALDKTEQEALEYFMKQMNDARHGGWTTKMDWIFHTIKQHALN
UniProt O00443, whole entry: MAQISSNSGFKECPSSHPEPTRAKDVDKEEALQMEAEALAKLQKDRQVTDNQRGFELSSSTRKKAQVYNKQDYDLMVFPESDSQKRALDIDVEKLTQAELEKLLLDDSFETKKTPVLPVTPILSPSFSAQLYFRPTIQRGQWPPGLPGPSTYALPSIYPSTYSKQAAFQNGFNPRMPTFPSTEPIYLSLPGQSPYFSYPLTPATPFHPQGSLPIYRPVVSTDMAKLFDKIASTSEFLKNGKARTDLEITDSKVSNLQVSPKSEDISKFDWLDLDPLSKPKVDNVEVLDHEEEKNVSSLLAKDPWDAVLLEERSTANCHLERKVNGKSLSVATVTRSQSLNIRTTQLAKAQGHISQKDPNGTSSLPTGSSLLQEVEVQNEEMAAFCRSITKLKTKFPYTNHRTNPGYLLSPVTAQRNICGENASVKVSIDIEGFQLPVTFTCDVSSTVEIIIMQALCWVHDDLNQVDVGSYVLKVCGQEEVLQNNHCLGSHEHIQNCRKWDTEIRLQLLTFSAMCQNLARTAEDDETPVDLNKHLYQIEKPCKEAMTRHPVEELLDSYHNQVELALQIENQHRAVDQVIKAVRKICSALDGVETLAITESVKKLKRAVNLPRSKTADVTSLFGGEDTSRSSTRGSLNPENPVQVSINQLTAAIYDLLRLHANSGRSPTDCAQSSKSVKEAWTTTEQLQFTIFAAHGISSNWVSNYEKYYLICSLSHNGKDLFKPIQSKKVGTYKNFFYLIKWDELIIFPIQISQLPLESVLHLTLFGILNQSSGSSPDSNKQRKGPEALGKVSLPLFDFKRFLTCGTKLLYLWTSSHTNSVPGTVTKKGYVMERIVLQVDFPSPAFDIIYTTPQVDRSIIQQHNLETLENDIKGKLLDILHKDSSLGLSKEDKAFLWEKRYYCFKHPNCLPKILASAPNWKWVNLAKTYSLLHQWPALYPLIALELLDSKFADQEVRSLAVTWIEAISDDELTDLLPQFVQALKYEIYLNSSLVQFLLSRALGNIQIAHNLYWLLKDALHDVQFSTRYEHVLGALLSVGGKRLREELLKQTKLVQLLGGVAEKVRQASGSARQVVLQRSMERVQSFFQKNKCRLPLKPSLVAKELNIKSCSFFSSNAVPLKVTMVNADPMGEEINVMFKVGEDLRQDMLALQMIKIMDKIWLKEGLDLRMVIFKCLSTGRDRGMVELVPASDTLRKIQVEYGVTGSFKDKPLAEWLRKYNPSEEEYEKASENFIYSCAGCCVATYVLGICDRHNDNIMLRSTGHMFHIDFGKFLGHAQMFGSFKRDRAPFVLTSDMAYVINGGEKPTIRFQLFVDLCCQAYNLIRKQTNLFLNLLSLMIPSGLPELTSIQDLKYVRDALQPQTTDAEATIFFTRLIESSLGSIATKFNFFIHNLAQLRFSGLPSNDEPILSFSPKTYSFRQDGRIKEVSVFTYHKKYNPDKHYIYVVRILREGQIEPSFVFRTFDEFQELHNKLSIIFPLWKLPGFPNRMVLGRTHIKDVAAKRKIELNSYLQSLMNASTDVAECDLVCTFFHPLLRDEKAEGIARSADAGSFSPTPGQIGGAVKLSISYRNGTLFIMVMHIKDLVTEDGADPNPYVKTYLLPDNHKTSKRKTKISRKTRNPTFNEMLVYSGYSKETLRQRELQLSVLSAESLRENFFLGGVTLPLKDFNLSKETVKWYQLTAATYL

[1] = target: PI3K (p110α (E542K)/p85α) (Homo sapiens (Human), UniProt P42336, E542K); experiment: Lipid kinase selectivity panel (Reaction Biology); format: biochemical; conditions: 1 μM compound, single dose duplicates, 10 μM ATP
Procedure: (§1) The compounds of the present invention were tested in a standard lipid kinase selectivity panel: 16 other lipid kinases (Reaction Biology, Malvern, PA, USA), under conditions of non-disclosure, non-dissemination, and non-use. In brief, compounds (see Table 2) were tested at in single dose duplicates at 1 μM against lipid kinases, including PI3Kα, PI3Kβ, and PI3Kδ, and reactions were carried out at 10 μM ATP.

[2] = target: PI3K (p110α (E545K)/p85α) (Homo sapiens (Human), UniProt P42336, E545K); experiment: Lipid kinase selectivity panel (Reaction Biology); format: biochemical; conditions: 1 μM compound, single dose duplicates, 10 μM ATP
Procedure: as §1

[3] = target: PI3K (p110α (H1047R)/p85α) (Homo sapiens (Human), UniProt P42336, H1047R); experiment: Lipid kinase selectivity panel (Reaction Biology); format: biochemical; conditions: 1 μM compound, single dose duplicates, 10 μM ATP
Procedure: as §1

PI3K (p110α/p65α) = PI3K (p110α/p65α) (Homo sapiens (Human), UniProt P42336); experiment: Lipid kinase selectivity panel (Reaction Biology); format: biochemical; conditions: 1 μM compound, single dose duplicates, 10 μM ATP
Procedure: as §1

PI3KC2α = PI3KC2α (Homo sapiens (Human), UniProt O00443); experiment: Lipid kinase selectivity panel (Reaction Biology); format: biochemical; conditions: 1 μM compound, single dose duplicates, 10 μM ATP
Procedure: as §1

PI3Kb (p110β/p85α) = PI3Kb (p110β/p85α) (Homo sapiens (Human), UniProt P42338); experiment: Lipid kinase selectivity panel (Reaction Biology); format: biochemical; conditions: 1 μM compound, single dose duplicates, 10 μM ATP
Procedure: as §1

PI3Kd (p110δ/p85α) = PI3Kd (p110δ/p85α) (Homo sapiens (Human), UniProt O00329); experiment: Lipid kinase selectivity panel (Reaction Biology); format: biochemical; conditions: 1 μM compound, single dose duplicates, 10 μM ATP
Procedure: as §1

PI3Kg (p110γ) = PI3Kg (p110γ) (Homo sapiens (Human), UniProt P48736); experiment: Lipid kinase selectivity panel (Reaction Biology); format: biochemical; conditions: 1 μM compound, single dose duplicates, 10 μM ATP
Procedure: as §1

PI3Kα (p110α/p85α) = PI3Kα (p110α/p85α) (Homo sapiens (Human), UniProt P42336); experiment: Lipid kinase selectivity panel (Reaction Biology); format: biochemical; conditions: 1 μM compound, single dose duplicates, 10 μM ATP
Procedure: as §1

COC(=O)Nc1cc(-c2cc(N3CCCC[C@@H]3C(F)(F)F)[nH]c(=O)c2)c(Cl)cn1
IC50 (VPS34): 100 to 500 nM | Percent inhibition relative to DMSO control, PI3K (p110α (E542K)/p85α) [1]: −9% | Percent inhibition relative to DMSO control, PI3K (p110α (E545K)/p85α) [2]: 4% | Percent inhibition relative to DMSO control, PI3K (p110α (H1047R)/p85α) [3]: −2% | Percent inhibition relative to DMSO control, PI3K (p110α/p65α) (PI3K (p110α/p65α)): 8% | Percent inhibition relative to DMSO control, PI3KC2α (PI3KC2α): 2% | Percent inhibition relative to DMSO control, PI3Kb (p110β/p85α) (PI3Kb (p110β/p85α)): −6% | Percent inhibition relative to DMSO control, PI3Kd (p110δ/p85α) (PI3Kd (p110δ/p85α)): 3% | Percent inhibition relative to DMSO control, PI3Kg (p110γ) (PI3Kg (p110γ)): −2% | Percent inhibition relative to DMSO control, PI3Kα (p110α/p85α) (PI3Kα (p110α/p85α)): −10%

— US20250236609A1, “VPS34 INHIBITORS AND METHODS OF USE THEREOF” (Deciphera Pharmaceuticals, LLC, priority 2023, published 2025)
